This experiment deals with human XIAP-BIR3 protein (residues 241-356) (Homo sapiens, UniProt P98170). The note with it: Table 5.

Chains of the proteins cited; added tags and fusions are not shown. Residues count along the entry.
UniProt P98170, 241-356: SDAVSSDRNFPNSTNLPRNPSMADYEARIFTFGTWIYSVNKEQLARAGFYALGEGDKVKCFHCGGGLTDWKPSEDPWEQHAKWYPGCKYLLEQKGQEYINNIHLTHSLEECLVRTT

Structures are written as SMILES.

The term Ki denotes the dissociation constant of the complex between target and ligand, obtained from inhibition or displacement. The low end stands for higher affinity, the high end for lower affinity.

In turn, `CC[C@H](N)C(=O)N[C@H]1CCC[C@H]2CC[C@@H](C(=O)NC(c3ccccc3)c3ccccc3)N2C1=O` [Compound 34] returned an inhibition constant Ki of 22 nM.

These data come from patent US7932382B2, “Conformationally constrained Smac mimetics and the uses thereof” (The Regents of the University of Michigan, priority 2005, dated 2011).
